Only a part is listed here, and it is no random draw. The source made the active and inactive calls.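 Rule for the calls: active = percent activation above the mean of all tested compounds plus 3 SD (cut at about 19% in these data); inactive = the rest.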
Molecular target: cAMP-dependent protein kinase type I-alpha regulatory subunit (Bos taurus) + cAMP-dependent protein kinase catalytic subunit beta (Mus musculus) (UniProt P00514+P68181)
Assay: activators of PKA-R1A holoenzyme, primary screen, biochemical, fluorescence polarization, Cy5-IP20, bovine R1A, mouse PKAc (AID 504707);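 note: higher means more PKAc released from R1A so a rise in polarization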
Settings: PKA-R1A dissociation, at 11.4 µM, stronger effect = higher value, scaled: DMSO 0%, 113 µM cGMP 100%

Sequences of proteins named here, by UniProt entry; tags and fusion partners are left off.
UniProt P00514, whole entry, looked up: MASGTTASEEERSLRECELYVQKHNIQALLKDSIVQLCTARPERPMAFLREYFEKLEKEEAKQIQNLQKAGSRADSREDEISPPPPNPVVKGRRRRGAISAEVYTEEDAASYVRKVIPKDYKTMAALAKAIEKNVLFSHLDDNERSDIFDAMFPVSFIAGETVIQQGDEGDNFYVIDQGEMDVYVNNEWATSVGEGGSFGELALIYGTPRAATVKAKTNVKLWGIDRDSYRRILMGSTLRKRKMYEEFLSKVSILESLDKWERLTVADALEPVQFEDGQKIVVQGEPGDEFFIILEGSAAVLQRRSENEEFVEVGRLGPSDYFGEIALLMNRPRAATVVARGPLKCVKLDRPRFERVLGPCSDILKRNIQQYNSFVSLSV

Row | SMILES | activation
1 | CCCC1OP(=O)(Nc2ccccc2)OCC1CC (stereo not given) | inactive: 1.4%
2 | O=C(/C=C/c1ccccc1)OC1CN2CCC1CC2 (stereo not given) | inactive: -4.94%
3 | NC(=O)Nc1ccc([As](=O)(O)O)cc1 | inactive: -9.54%
4 | CCOP1(=S)c2c(C)nn(CCC#N)c2N=C(c2ccc(F)cc2)N1C (stereo not given) | inactive: 3.52%
5 | CN(C(=O)Cc1ccccc1)[C@@H]1CC[C@]2(CCCO2)C[C@H]1N1CCCC1 | inactive: -7.75%
6 | N#CCCN(C(=O)COC(=O)C(O)(c1ccccc1)c1ccccc1)c1ccc(F)cc1 | inactive: 7.45%
7 | CN(C(=O)Cc1ccc(Cl)c(Cl)c1)[C@H]1CC[C@@]2(CCCO2)C[C@@H]1N1CCCC1 | inactive: -3.24%
8 | O=[N+]([O-])c1ccc2c(c1)nnn2O | inactive: -12%
9 | CN(C)C(=O)c1cc([N+](=O)[O-])cc2c1-c1c(cc([N+](=O)[O-])cc1[N+](=O)[O-])C2=O | inactive: 5.41%
10 | O=P(Nc1nccs1)(Oc1ccccc1)Oc1ccccc1 | inactive: -6.14%
11 | O=P(Nc1nccs1)(c1ccccc1)c1nc2ccccc2s1 (stereo not given) | inactive: -5.5%
12 | CCOP1(=S)c2c(C)nn(CCC#N)c2N=C(c2ccccc2F)N1C (stereo not given) | inactive: -5.7%
13 | CS(=O)(=O)c1cc([N+](=O)[O-])c2no[n+]([O-])c2c1 | inactive: -4.52%
14 | O=C(O)COc1ccc([As](=O)(O)O)cc1[N+](=O)[O-] | inactive: 5.04%
15 | Nc1ccccc1[As](=O)(O)c1ccccc1 | inactive: -2.89%
16 | Cc1ccc(NCCc2c([N+](=O)[O-])cc([N+](=O)[O-])cc2[N+](=O)[O-])cc1 | inactive: 5.74%
17 | Nc1cccc2c([As](=O)(O)O)cccc12 | inactive: -8.39%
18 | CCCOP(=S)(Nc1nc(N)cc(=O)[nH]1)OCCC | inactive: 2.78%
19 | CCOP(=O)(Nc1cccc2ccccc12)OCC | inactive: -17.5%
20 | COc1cc(C2NCCC3(OCCO3)C2(C)C)cc(OC)c1OC (stereo not given) | inactive: 1.32%
21 | O=C(OC1CN2CCC1CC2)c1ccc(Cl)cc1 (stereo not given) | inactive: -0.55%
22 | CS(=O)(=O)c1ccc(Cl)c(NC(=O)COC(=O)C(O)(c2ccccc2)c2ccccc2)c1 | inactive: 0.76%

Row | SMILES | activation
23 | O=[As](O)(O)c1cccnc1 | inactive: 7.77%
24 | COc1cc(C(=O)NCC2(N3CCOCC3)CCCCC2)cc(Cl)c1OC(C)C | inactive: -7.42%
25 | Cc1cccc(OCC(=O)OC2CN3CCC2CC3)c1 (stereo not given) | inactive: -7.77%
26 | O=[As](O)(c1cccc(O)c1)c1cccc(O)c1 | inactive: -6.36%
27 | O=[N+]([O-])c1cc(Oc2ccc([N+](=O)[O-])cc2C(F)(F)F)cc([N+](=O)[O-])c1 | inactive: -0.12%
28 | COc1ccc(N/C(=N/P(=O)(N2CCOCC2)N2CCOCC2)N2CCOCC2)cc1 | inactive: -4.42%
29 | Cc1c2c(nc3ccccc13)SC(C(Cl)Cl)C2 (stereo not given) | inactive: 5.33%
30 | Cc1cc(=O)[nH]c(N[N+](=O)[O-])n1 | inactive: -10.7%
31 | O=C(OC1CN2CCC1CC2)C12CC3CC(CC(C3)C1)C2 (stereo not given) | inactive: -4.41%
32 | O=P1(N(CCCl)CCCl)Nc2ccccc2N1 | inactive: 0.5%
33 | O=P1(N(CCCl)CCCl)OCCCN1CCCl (stereo not given) | inactive: 5.45%
34 | COc1cc(I)ccc1[As](=O)(O)O | inactive: 1.62%
35 | COc1ccc2nc(NP(=O)(c3ccccc3)c3ccccc3)sc2c1 | inactive: -13.1%
36 | ClCCSc1nnc(-c2cccnc2)o1 | inactive: -0.94%
37 | COC(=O)C1(C)COP(=O)(N2CCCCCC2)OC1 (stereo not given) | inactive: -4.21%
38 | CC(C)c1ccc(OP(=O)(Nc2ccccn2)Oc2ccccc2F)cc1 (stereo not given) | active: 19.3%
39 | O=[N+]([O-])c1cc([N+](=O)[O-])c(-c2ccn[nH]2)s1 | inactive: 7.71%
40 | CCN(CC)C(=S)SC(NC=O)C(Cl)(Cl)Cl (stereo not given) | inactive: 0.07%
41 | O=C(OC1CN2CCC1CC2)c1cccc2[nH]cnc12 (stereo not given) | inactive: -8.47%
42 | O=[N+]([O-])c1ccc(-c2cc([N+](=O)[O-])c(O)c([N+](=O)[O-])c2)cc1 | inactive: 2.52%
43 | COc1cc(C(=O)NCC2(N3CCOCC3)CCCCC2)ccc1OCC(C)C | inactive: -7.61%
44 | C[As](=O)(O)c1cccc(C(=O)O)c1 | inactive: -10.5%

Row | SMILES | activation
45 | O=[As](O)(c1ccc(O)cc1)c1ccccc1O | inactive: -1.94%
46 | Cc1ccc(OP(=O)(Nc2ccc([N+](=O)[O-])cn2)Oc2ccc(C)cc2)cc1 | inactive: 5.96%
47 | Cc1ccc2nc3c(c(C)c2c1)CC(C(Cl)Cl)S3 (stereo not given) | inactive: -13.7%
48 | CCOC(=O)Nc1cccc([As](=O)(O)O)c1 | inactive: -0.99%
49 | Cc1cc(SC(NC=O)C(Cl)(Cl)Cl)ncn1 (stereo not given) | inactive: 0.43%
50 | O=P(Nc1ccccn1)(c1cccc2ccccc12)c1cccc2ccccc12 | inactive: 0.87%
51 | O=[N+]([O-])c1ccc(Nc2ccc(Oc3ccc([N+](=O)[O-])cc3[N+](=O)[O-])cc2)c([N+](=O)[O-])c1 | inactive: 4.42%
52 | O=C(O)C(O)c1ccc(N(CCCl)CCCl)cc1 (stereo not given) | inactive: 6.54%
53 | CCOC(=O)Nc1ccc([As](=O)(O)O)c(O)c1 | inactive: -0.84%
54 | CC1CCNP(=O)(N(CCCl)CCCl)O1 (stereo not given) | inactive: -2.7%
55 | COP(=O)(OC)N1CC1c1ccccc1 (stereo not given) | inactive: 2.55%
56 | Cc1cc(SC(NC(=O)c2ccccc2)C(Cl)(Cl)Cl)nc(C(C)C)n1 (stereo not given) | inactive: 13.5%
57 | CCCCOc1ccc(C(=O)NCC2(N3CCCCC3)CCCCC2)cc1OC | inactive: 0.85%
58 | CSc1ccc(Nc2c([N+](=O)[O-])cc([N+](=O)[O-])cc2[N+](=O)[O-])cc1 | inactive: -3.75%
59 | O=C(OC1CN2CCC1CC2)c1cccc([N+](=O)[O-])c1 (stereo not given) | inactive: -6.57%
60 | CCOC(=O)c1ccc(NC(=O)C(C)(CCl)SC)cc1 (stereo not given) | inactive: -1.91%
61 | CCC(C)N(CC(C)C)C(=S)SC(NC(C)=O)C(Cl)(Cl)Cl (stereo not given) | inactive: 3.64%
62 | COP1(=S)c2c(C)nn(CCC#N)c2N=C(c2ccc(F)cc2)N1C (stereo not given) | inactive: 5.13%
63 | O=C(O)C(=O)c1ccc(N(CCCl)CCCl)cc1 | inactive: -1.28%
64 | O=C(Nc1ccncc1[N+](=O)[O-])c1ccc([N+](=O)[O-])cc1[N+](=O)[O-] | inactive: -1.74%
65 | O=C(COc1ccccc1)OC1CN2CCC1CC2 (stereo not given) | inactive: 4.73%

Source: PubChem BioAssay AID504707 (The Scripps Research Institute Molecular Screening Center, 2011)
